From patent US20260384421A1, “NOVEL COMPOUNDS THAT CAN BE USED AS THERAPEUTIC AGENTS” (published 2026)

Tests used:
A-431 cells = assay: alamarBlue proliferation assay with A-431 cells; settings: read-out: Activity on A-431: IC50, DMEM medium, 10% FBS
ZR-75-30 cells = assay: alamarBlue proliferation assay with ZR-75-30 cells; settings: read-out: Activity on ZR-75-30 (IC50), day 5
Description: (§1) These hyperproliferative processes can be benign or malignant and include hyperplasia, neoplasia, cancer and pre-cancerous lesions, and metastases. […] To this end, according cells were seeded into 96-well plates (CORNING #3598) suitable for fluorescence assays at following initial cell numbers: 1000 cells per well for HPEK; 3000 cells per well for MDA-MB-231, 8000 cells per well for ZR-75-30, 1500 cells per well for HCC-1395, 1500 cells per well for HCC-1937, 3000 cells per well for T-47D, 1500 cells per well for JURKAT, 5000 cells per well for RPMI-8402, 9000 cells per well for LOUCY, 1500 cells per well for TANQUE, 9000 cells per well for REC-1, 1000 cells per well for HL-60, 1000 cells per well for NB-4, 9000 cells per well for TT, 2000 cells per well for HeLa, 2000 cells per well for 23132/87, 9000 cells per well for SW-948, 700 cells per well for HCT-116, 1500 cells per well for BHY, 700 cells per well for A-431, 1500 cells per well for HEP-G2, 500 cells per well for NCI-H460, 1000 cells per well for A-549, 1500 cells per well for PANC-1, 2500 cells per well for U-87 MG, 700 cells per well for A-375, 1500 cells per well for RVH-421, 2000 cells per well for SW-1353, 500 cells per well for C2C12, 500 cells per well for LL/2, and 3000 cells per well for CF21.T. In a volume of 90 μL per well of culture medium the cells were treated with compounds at indicated final concentrations by adding 10 μL per well of 10× compound working solutions from 1:100 pre-diluted 1000× compound DMSO stock-solutions in H2O (Water For Injection, WFI, Fisher Scientific, Gibco™ #A12873) or with the empty carrier DMSO (AppliChem, #A3672) at 0.1% v/v as control yielding a final volume of 100 μL per well. […] The readout was taken with a multi-well plate-reader (Tecan Spark®) in the fluorescence mode with applying a filter for excitation at 560 nm (band width 10 nm) and for emission at 590 nm (band width 10 nm). […]

MDA-MB-231 cells = assay: alamarBlue proliferation assay with MDA-MB-231 cells (glucose-free Leibovitz's L-15 medium)
HCC-1395 cells = assay: alamarBlue proliferation assay with HCC-1395 cells; settings: read-out: Activity on HCC-1395 (IC50), day 5
Excerpt: (§2) These hyperproliferative processes can be benign or malignant and include hyperplasia, neoplasia, cancer and pre-cancerous lesions, and metastases. The antiproliferative activities of compounds falling under general formula (I) were investigated on human primary epidermal keratinocytes (HPEK) and human, murine and canine cell lines derived from hyperproliferative tissue or different cancer types, including MDA-MB-231, ZR-75-30, HCC-1395, HCC-1937, and T-47D all originating from cancer of the breast, JURKAT, RPMI-8402, LOUCY, TANQUE, REC-1, HL-60, NB-4 all originating from different types of blood cancer including lymphoma and leukemia of T-cells, B-cells and myeloid cells, TT originating from cancer of the neuroendocrine system, HeLa originating from cancer of the cervix, 23132/87, SW-948, and HCT-116 all originating from cancer of the gastrointestinal tract including stomach and colon, BHY originating from cancer of the mucosal epithelium, A-431 originating from cancer of the skin, HEP-G2 originating from cancer of the liver, NCI-H460 and A-549 both originating from cancer of the lung, PANC-1 originating from cancer of the pancreas, U-87 MG originating from cancer of the brain, A-375 and RVH-421 both originating from cancer of melanocytes, SW-1353 originating from cancer of bone-derived chondrocytes, C2C12 a mouse cell line originating from hyperproliferative muscle progenitor cells, LL/2 a mouse cell line originating from cancer of the lung, CF21.T a dog cell line originating from cancer of the connective tissue. To this end, according cells were seeded into 96-well plates (CORNING #3598) suitable for fluorescence assays at following initial cell numbers: 1000 cells per well for HPEK; 3000 cells per well for MDA-MB-231, 8000 cells per well for ZR-75-30, 1500 cells per well for HCC-1395, 1500 cells per well for HCC-1937, 3000 cells per well for T-47D, 1500 cells per well for JURKAT, 5000 cells per well for RPMI-8402, 9000 cells per well for LOUCY, 1500 cells per well for TANQUE, 9000 cells per well for REC-1, 1000 cells per well for HL-60, 1000 cells per well for NB-4, 9000 cells per well for TT, 2000 cells per well for HeLa, 2000 cells per well for 23132/87, 9000 cells per well for SW-948, 700 cells per well for HCT-116, 1500 cells per well for BHY, 700 cells per well for A-431, 1500 cells per well for HEP-G2, 500 cells per well for NCI-H460, 1000 cells per well for A-549, 1500 cells per well for PANC-1, 2500 cells per well for U-87 MG, 700 cells per well for A-375, 1500 cells per well for RVH-421, 2000 cells per well for SW-1353, 500 cells per well for C2C12, 500 cells per well for LL/2, and 3000 cells per well for CF21.T. In a volume of 90 μL per well of culture medium the cells were treated with compounds at indicated final concentrations by adding 10 μL per well of 10× compound working solutions from 1:100 pre-diluted 1000× compound DMSO stock-solutions in H2O (Water For Injection, WFI, Fisher Scientific, Gibco™ #A12873) or with the empty carrier DMSO (AppliChem, #A3672) at 0.1% v/v as control yielding a final volume of 100 μL per well. At day 5 after starting the treatments the cells were subjected to the alamarBlue® Proliferation Assay (Bio-Rad Serotec GmbH, BUF012B) according to the protocol of the manufacturer. The readout was taken with a multi-well plate-reader (Tecan Spark®) in the fluorescence mode with applying a filter for excitation at 560 nm (band width 10 nm) and for emission at 590 nm (band width 10 nm). Treatment for maximum proliferation inhibition with the commercial cytotoxic compound (S)-(+)-camptothecin (Fluorochem #M01564) at a concentration of 10 μM was included on each plate for assay quality control. Some of the test compounds of the present invention may have been obtained and applied as their salt forms.
(§3) The assays were performed in duplicate or more replicates of independent single experiments each containing a three- to six-fold replicate for every condition. […]

HEP-G2 cells = assay: alamarBlue proliferation assay with HEP-G2 cells; settings: read-out: Activity on HEP-G2: IC50, RPMI 1640 medium, 10% FBS
SW-1353 cells = assay: alamarBlue proliferation assay with SW-1353 cells (glucose-free L-15 medium); settings: read-out: Activity on SW-1353: IC50, Leibovitz's L-15 medium, 10% FBS, 0% CO2
U-87 MG cells = assay: alamarBlue proliferation assay with U-87 MG cells; settings: read-out: Activity on U-87MG: IC50, EMEM medium, 10% FBS
SW-948 cells = assay: alamarBlue proliferation assay with SW-948 cells (glucose-free L-15 medium); settings: read-out: Activity on SW-948: IC50, Leibovitz's L-15 medium, 10% FBS, 0% CO2
PANC-1 cells = assay: alamarBlue proliferation assay with PANC-1 cells; settings: read-out: Activity on PANC-1: IC50, DMEM medium, 10% FBS
Excerpt: as §2, §3

HPEKp cells = assay: proliferation assay with human epidermal keratinocyte progenitors (HPEKp), selectivity versus MDA-MB-231; settings: read-out: Activity (HPEK): antiproliferative activity on HPEK cells, IC50 category; HPEK cells cultivated in CnT-Prime medium
HL-60 cells = assay: alamarBlue proliferation assay with HL-60 cells; settings: read-out: Activity on HL-60: IC50, RPMI 1640 medium, 10% FBS
A-549 cells = assay: alamarBlue proliferation assay with A-549 cells; settings: read-out: Activity on A-549: IC50, DMEM medium, 10% FBS
NCI-H460 cells = assay: alamarBlue proliferation assay with NCI-H460 cells; settings: read-out: Activity on NCI-H460: IC50, RPMI 1640 medium, 10% FBS
RVH-421 cells = assay: alamarBlue proliferation assay with RVH-421 cells (glucose-free L-15 medium); settings: read-out: Activity on RVH-421: IC50, Leibovitz's L-15 medium, 10% FBS, 0% CO2
REC-1 cells = assay: alamarBlue proliferation assay with REC-1 cells; settings: read-out: Activity on REC-1 (IC50), day 5
Description: as §1

LL/2 cells = assay: alamarBlue proliferation assay with LL/2 cells; settings: read-out: Activity on LL/2: IC50; LL/2 murine Lewis lung carcinoma cells, DMEM medium, 10% FBS
TANQUE cells = assay: alamarBlue proliferation assay with TANQUE cells; settings: read-out: Activity on TANOUE: IC50, RPMI 1640 medium, 10% FBS
BHY cells = assay: alamarBlue proliferation assay with BHY cells; settings: read-out: Activity on BHY: IC50, DMEM medium, 10% FBS
HCT-116 cells = assay: alamarBlue proliferation assay with HCT-116 cells; settings: read-out: Activity on HCT-116: IC50, McCoy's 5A medium, 10% FBS
JURKAT cells = assay: alamarBlue proliferation assay with JURKAT cells; settings: read-out: Activity on JURKAT (IC50), day 5
NB-4 cells = assay: alamarBlue proliferation assay with NB-4 cells; settings: read-out: Activity on NB-4: IC50, RPMI 1640 medium, 10% FBS
A-375 cells = assay: alamarBlue proliferation assay with A-375 cells; settings: read-out: Activity on A-375: IC50, DMEM medium, 10% FBS
[1] = read-out: Activity on MDA-MB-231 (IC50), glucose-free Leibovitz's L-15, 10% FBS, day 5, alamarBlue
[2] = read-out: Activity (MDA): antiproliferative activity on MDA-MB-231 cells, IC50 category, MDA-MB-231 cells cultivated in glucose-free Leibovitz's L-15 medium

SMILES | pIC50 (A-431 cells) | pIC50 (ZR-75-30 cells) | pIC50 (MDA-MB-231 cells; [1]) | pIC50 (HCC-1395 cells) | pIC50 (HEP-G2 cells) | pIC50 (SW-1353 cells) | pIC50 (U-87 MG cells) | pIC50 (SW-948 cells) | pIC50 (PANC-1 cells) | pIC50 (HPEKp cells) | pIC50 (HL-60 cells) | pIC50 (A-549 cells) | pIC50 (NCI-H460 cells) | pIC50 (RVH-421 cells) | pIC50 (MDA-MB-231 cells; [2]) | pIC50 (REC-1 cells) | pIC50 (LL/2 cells) | pIC50 (JURKAT cells) | pIC50 (NB-4 cells) | further results
CCCCN1CCN(C(=O)c2ccc(Oc3ccc(C4CCC5(CC4)OCCO5)cc3C=O)cc2)CC1 | ≥ 5.30 | ≥ 5.30 | ≥ 5.30 | ≥ 5.30 | ≥ 5.30 |  |  |  |  |  |  |  |  |  |  |  |  |  |  | 
O=C(c1ccc(Oc2ccc(C3CCC4(CC3)OCCO4)cc2CO)cc1)N1CCN(Cc2ccccc2)CC1 | ≥ 6.70 | ≥ 6.70 | ≥ 6.70 |  | ≥ 6.70 | ≥ 6.70 | ≥ 6.00 | ≥ 6.00 | ≥ 6.70 | > 5.30 | ≥ 5.30 | ≥ 6.70 | ≥ 6.70 | ≥ 6.70 | > 6.00 |  |  |  |  | 
O=C(c1ccc(Oc2ccc(C3CCC4(CC3)OCCO4)cc2CO)cc1)N1CCN(Cc2ccc(C(F)(F)F)cc2)CC1 | ≥ 6.70 |  | ≥ 6.70 |  | ≥ 6.70 | ≥ 6.70 | ≥ 5.30 | ≥ 6.70 | ≥ 4.70 | > 5.00 | ≥ 6.70 | ≥ 6.70 | ≥ 6.70 | ≥ 6.70 | > 6.00 | ≥ 5.30 | ≥ 6.70 | ≥ 4.70 | ≥ 6.70 | pIC50 (TANQUE cells): ≥ 6.70; pIC50 (BHY cells): ≥ 6.70; pIC50 (HCT-116 cells): ≥ 6.70
O=C(c1ccc(Oc2ccc(C3CCC4(CC3)OCCO4)cc2CO)cc1)N1CCN(Cc2ccc(S(F)(F)(F)(F)F)cc2)CC1 |  |  | ≥ 6.70 |  |  | ≥ 6.70 | ≥ 4.70 | ≥ 6.70 |  |  | ≥ 5.30 | ≥ 6.70 | ≥ 6.70 | ≥ 6.70 |  | ≥ 5.30 | ≥ 6.70 | ≥ 5.30 | ≥ 6.70 | pIC50 (A-375 cells): ≥ 5.30
O=Cc1cc(C2CCC3(CC2)OCCO3)ccc1Oc1ccc(C(=O)N2CCN(Cc3ccccc3)CC2)cc1 | ≥ 5.30 | ≥ 6.00 | ≥ 6.70 | ≥ 4.70 | ≥ 5.30 |  |  |  |  | > 5.30 |  |  |  |  | > 6.00 |  |  |  |  | 

pIC50: −log10 of the molar value. Read-outs that look alike come from different tables or passages of the source.
